Test results published in patent US8598357B2, “Benzodioxole piperidine compounds” (Hoffmann-La Roche Inc., priority 2011, dated 2013).
pKi: −log10 of the molar value.

The chains behind the UniProt entries cited, without tags or fusion partners.
UniProt P14416, whole entry: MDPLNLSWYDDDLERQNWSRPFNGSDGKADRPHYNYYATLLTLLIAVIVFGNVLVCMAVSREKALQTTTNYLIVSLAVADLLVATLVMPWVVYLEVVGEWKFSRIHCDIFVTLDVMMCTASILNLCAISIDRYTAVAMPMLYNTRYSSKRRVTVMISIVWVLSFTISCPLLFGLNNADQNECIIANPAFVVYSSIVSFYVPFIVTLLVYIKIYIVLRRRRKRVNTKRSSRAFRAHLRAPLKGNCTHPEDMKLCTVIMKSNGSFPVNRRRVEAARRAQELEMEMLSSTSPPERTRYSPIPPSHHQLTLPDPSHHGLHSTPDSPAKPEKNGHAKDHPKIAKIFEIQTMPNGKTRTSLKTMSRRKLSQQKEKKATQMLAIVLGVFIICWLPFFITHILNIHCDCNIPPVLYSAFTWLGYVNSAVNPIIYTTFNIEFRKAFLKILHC

Molecular target: D2 receptor (Homo sapiens (Human), UniProt P14416)
Assay: Radioligand binding assay ([3H]-spiperone) on membranes of HEK293 EBNA cells expressing human D2 receptor
Conditions: human receptor in HEK293 EBNA cells; 0.7 nM [3H]-spiperone

O=C(CC1COCCO1)N[C@H]1CC[C@H](CCN2CCC(c3cccc4c3OCO4)CC2)CC1 (stereo partly drawn) [Example 3, Trans-N-{4-[2-(4-Benzo[1,3]dioxol-4-yl-piperidin-1-yl)-ethyl]-cyclohexyl}-2-[1,4]dioxan-2-yl-acetamide]
pKi: 6.28
